For 63 molecules, inhibition results are on record in PubChem BioAssay AID1789 (The Scripps Research Institute Molecular Screening Center, 2009).

This is a selection; strong and weak results do not stand in their true shares. Active and inactive are the calls of the source.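 Rule for the calls: active = inhibition above the screen-wide mean plus 3 SD, computed separately per campaign (cut at about 16% in these data); inactive = the rest.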

The test has as its system Heat shock protein HSP 90 (rabbit reticulocyte lysate; luciferase refolding). Put plainly: HSP90 inhibitors, primary screen, cell lysate, luminescence (AID 1789).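 Note: 0% = DMSO wells and 100% = 60 µM geldanamycin wells; inhibitors lower the luminescence because luciferase stays unfolded.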 The settings on record: 3 h, at 5.6 µM, active compounds read high.
As for `COc1ccccc1OP(C)(=O)Nc1c(C)cccc1C` (stereo not drawn), the inhibition was inactive: 0.95%.
Then `CN1CCCCC1COC(=O)C1(O)c2ccccc2CCc2ccccc21` (stereo not drawn), with inactive: 1.43%.
Then `CP(=O)(Nc1ccc(SC(F)(F)F)cc1)Oc1ccccc1` (stereo not drawn), with inactive: -2.73%; and `CCCOc1ccc(NP(C)(=O)Oc2ccc(Cl)cc2)cc1` (stereo not drawn), with inactive: 0.23%.
Then `O=[N+]([O-])c1cc([N+](=O)[O-])c(Nc2nnnn2CCO)c([N+](=O)[O-])c1`, with inactive: -0.18%; and `CCOC(=O)C(CC)C1=NC(C)(C)Cc2ccccc21.O=[N+]([O-])c1cc([N+](=O)[O-])c(O)c([N+](=O)[O-])c1` (stereo not drawn), with inactive: 5.41%.
`Cc1nc2ccc3ccccc3c2s1.O=[N+]([O-])c1cc([N+](=O)[O-])c(O)c([N+](=O)[O-])c1`: the inhibition is inactive: 1.49%.
Then `O=[N+]([O-])c1cc([N+](=O)[O-])c(-n2nnc3ccccc32)c([N+](=O)[O-])c1`, with inactive: 1.29%; and `Cc1ccc(C)c(NP(C)(=O)Oc2ccccc2)c1` (stereo not drawn), with inactive: 0.82%.
`CP(=O)(Nc1cccc(Br)c1)Oc1ccccc1` (stereo not drawn): the inhibition was inactive: 1.65%.
In the case of `Cc1cc(C)cc(OP(C)(=O)Nc2ccccn2)c1` (stereo not drawn), the inhibition is inactive: -0.5%.
Then `COc1ccccc1OP(C)(=O)Nc1cccc(Br)c1` (stereo not drawn), with inactive: 6.66%; and `CCOC(=O)c1ccc(NP(C)(=O)Oc2cc(C)cc(C)c2)cc1` (stereo not drawn), with inactive: 1.77%.
As for `Cc1cc(C)cc(OP(C)(=O)Nc2ccc(C)cc2C)c1` (stereo not drawn), the inhibition was inactive: 0.46%.
Then `CC1=NCCc2c1[nH]c1ccccc21.O=[N+]([O-])c1cc([N+](=O)[O-])c(O)c([N+](=O)[O-])c1`, with inactive: 5.12%; and `O=C(O)c1cccc(Nc2c([N+](=O)[O-])cc([N+](=O)[O-])cc2[N+](=O)[O-])c1`, with inactive: -1.85%; and `COc1ccccc1OP(C)(=O)Nc1ccc(C)cc1` (stereo not drawn), with inactive: 3.52%.
`Cc1ccc(NP(C)(=O)Oc2ccccc2)c(C)c1` (stereo not drawn): the inhibition was inactive: -1.69%.
Then `CCOC(=O)c1ccc(NP(C)(=O)Oc2ccccc2)cc1` (stereo not drawn), with inactive: -1.18%; and `Cc1cc(C)cc(OP(C)(N)=O)c1` (stereo not drawn), with inactive: 0.6%.
Then `COc1ccccc1OP(C)(=O)Nc1cc(Cl)ccc1C` (stereo not drawn), with inactive: 1.81%; and `COc1ccc(OP(C)(=O)Nc2cccc(F)c2)cc1` (stereo not drawn), with inactive: 2.6%.
For the molecule `O=[N+]([O-])c1ccc2c(c1)C=Nc1ccccc1O2`, the inhibition is inactive: 1.16%.
Then `CC(C)(C)c1ccc(OP(C)(=O)Nc2ccc(SC(F)(F)F)cc2)cc1` (stereo not drawn), with inactive: 0.13%; and `Cc1cccc(C)c1OP(C)(N)=O` (stereo not drawn), with inactive: -3.59%; and `CCN(CC)CCCOC(=O)C(O)(c1ccccc1)c1ccccc1`, with inactive: -1.42%.
In the case of `CCOC(=O)c1ccc(NP(C)(=O)Oc2ccc(OC)cc2)cc1` (stereo not drawn), the inhibition was inactive: -0.34%.
Then `CCOP(C)(=S)SCC(=O)NC(C)C(=O)O` (stereo not drawn), with inactive: 5.61%.
In the case of `CP(=O)(Nc1ccccn1)Oc1ccc(Cl)cc1` (stereo not drawn), the inhibition is inactive: -3.01%.
Then `Cc1cccc(C)c1OP(C)(=O)Nc1ccc(SC(F)(F)F)cc1` (stereo not drawn), with inactive: -1.54%; and `CP(=O)(Nc1ccc(SC(F)(F)F)cc1)Oc1ccc(Cl)cc1` (stereo not drawn), with inactive: 7.61%.
Take `CP(=O)(Oc1ccccc1)OC(c1ccccc1)C(F)(F)F` (stereo not drawn): the inhibition was inactive: 0.3%.
Then `CCc1ccc(OP(C)(=O)N2CCN(c3ccc([N+](=O)[O-])cc3)CC2)cc1` (stereo not drawn), with inactive: 6.88%.
Then `CP(=O)(NC(=O)Nc1ccccc1)Oc1ccccc1` (stereo not drawn), with inactive: -0.06%; and `Cc1cc(C)cc(OP(C)(=O)Nc2ccc(SC(F)(F)F)cc2)c1` (stereo not drawn), with inactive: 1.12%; and `CP(=S)(Nn1cnnc1)Oc1ccccc1` (stereo not drawn), with inactive: 9.09%.
Then `CP(=O)(Nc1ccccc1Br)Oc1ccccc1` (stereo not drawn), with inactive: 0.32%.
Turning to `COc1ccccc1OP(C)(=O)Nc1ccccc1` (stereo not drawn), the inhibition was inactive: -0.03%.
Then `CCOC(=O)c1ccc(NP(C)(=O)Oc2ccc(Cl)cc2)cc1` (stereo not drawn), with inactive: 4.56%.
Then `CP(=O)(OC12CC3CC(CC(C3)C1)C2)OC12CC3CC(CC(C3)C1)C2`, with inactive: 3.42%; and `CC(C)(C)c1ccc(OP(C)(=O)O)cc1`, with inactive: -9.98%.
Then `COc1ccccc1OP(C)(=O)Nc1ccccc1Br` (stereo not drawn), with inactive: -3.32%; and `CP(=O)(Nc1ccc(Cl)cc1)Oc1ccc(F)cc1` (stereo not drawn), with inactive: 0.95%; and `CN(C)C(=O)c1c([N+](=O)[O-])cc([N+](=O)[O-])cc1[N+](=O)[O-]`, with inactive: 5.62%.
On to `CCN(CC)CC(O)COC(=O)C(O)(c1ccccc1)C1CCCCC1` (stereo not drawn), for which the inhibition was inactive: -4.93%.
Then `COc1ccc(OP(C)(=O)Nc2ccc(Br)cc2)cc1` (stereo not drawn), with inactive: -3.2%; and `COc1ccccc1OP(C)(=O)Nc1c(C)n(C)n(-c2ccccc2)c1=O` (stereo not drawn), with inactive: 3.92%.
Then `O=C(OCCCN1CCCC1)C(O)(c1ccccc1)C1CCCCC1` (stereo not drawn), with inactive: -0.82%; and `CP(=O)(Oc1ccccc1)N1CCOC1=O` (stereo not drawn), with inactive: 0.81%.
Then `CCc1ccc(OP(C)(=O)Nc2cccnc2)cc1` (stereo not drawn), with inactive: 1.14%; and `O=[N+]([O-])c1cc([N+](=O)[O-])c(Nc2ccccn2)c([N+](=O)[O-])c1`, with inactive: 3.38%.
On to `Cc1c(NP(C)(=O)Oc2ccc(C(C)C)cc2)c(=O)n(-c2ccccc2)n1C` (stereo not drawn), for which the inhibition is inactive: -0.68%.
Then `CP(=O)(Nc1ccccn1)Oc1ccccc1` (stereo not drawn), with inactive: -4.18%; and `COc1ccccc1OP(C)(=O)Nc1ccc(C)cc1C` (stereo not drawn), with inactive: 0.77%.
Then `CCc1ccc(OP(C)(=O)O)cc1`, with inactive: 2.79%; and `COc1ccccc1OP(C)(=O)Nc1ccc(Br)cc1` (stereo not drawn), with inactive: -0.71%; and `COc1ccc(OP(C)(=O)Nc2ccccn2)cc1` (stereo not drawn), with inactive: -0.87%.
Then `CN(C)CCOC(=O)C(O)(c1ccccc1)C1CCCC1` (stereo not drawn), with inactive: -5.05%; and `Cc1nc2ccc3ccccc3c2o1.O=[N+]([O-])c1cc([N+](=O)[O-])c(O)c([N+](=O)[O-])c1`, with inactive: -2.53%.
With `CP(=O)(OCCOc1ccccc1)OCCOc1ccccc1`, the inhibition was inactive: 1.31%.
Then `CP(=O)(Nc1ccc(Cl)cc1Cl)Oc1ccccc1` (stereo not drawn), with inactive: -0.1%; and `Cc1cc(C)cc(OP(C)(=O)Nc2cccc(C(F)(F)F)c2)c1` (stereo not drawn), with inactive: 4.21%; and `COc1ccccc1OP(C)(=O)Nc1ccc(C)c(C)c1` (stereo not drawn), with inactive: 0.2%.

By inhibition is commonly meant the drop in the measured response relative to a control, in per cent.
